# Measured values from ChEMBL document CHEMBL1142440, “Discovery, synthesis and biological evaluation of isoquinolones as novel and highly selective JNK inhibitors (1)” (Bioorg Med Chem, 2008).
# The chains behind the UniProt entries cited, without tags or fusion partners. Where a name states a change or a piece, a line headed by the entry shows the natural chain unless it says otherwise.
# UniProt P53779: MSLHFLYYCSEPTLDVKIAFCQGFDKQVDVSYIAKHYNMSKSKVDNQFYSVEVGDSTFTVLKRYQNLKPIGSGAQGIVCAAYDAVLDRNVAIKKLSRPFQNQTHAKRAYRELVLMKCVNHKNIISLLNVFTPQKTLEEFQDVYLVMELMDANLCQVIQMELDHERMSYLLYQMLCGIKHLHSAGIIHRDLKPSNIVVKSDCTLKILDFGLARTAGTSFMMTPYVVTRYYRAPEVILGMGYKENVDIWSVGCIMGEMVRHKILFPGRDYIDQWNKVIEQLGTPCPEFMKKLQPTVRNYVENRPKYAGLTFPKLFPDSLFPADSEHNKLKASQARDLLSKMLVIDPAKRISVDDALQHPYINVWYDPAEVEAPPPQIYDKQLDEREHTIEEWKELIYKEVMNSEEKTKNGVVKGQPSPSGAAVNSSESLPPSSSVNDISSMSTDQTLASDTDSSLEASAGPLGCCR
# UniProt P45984: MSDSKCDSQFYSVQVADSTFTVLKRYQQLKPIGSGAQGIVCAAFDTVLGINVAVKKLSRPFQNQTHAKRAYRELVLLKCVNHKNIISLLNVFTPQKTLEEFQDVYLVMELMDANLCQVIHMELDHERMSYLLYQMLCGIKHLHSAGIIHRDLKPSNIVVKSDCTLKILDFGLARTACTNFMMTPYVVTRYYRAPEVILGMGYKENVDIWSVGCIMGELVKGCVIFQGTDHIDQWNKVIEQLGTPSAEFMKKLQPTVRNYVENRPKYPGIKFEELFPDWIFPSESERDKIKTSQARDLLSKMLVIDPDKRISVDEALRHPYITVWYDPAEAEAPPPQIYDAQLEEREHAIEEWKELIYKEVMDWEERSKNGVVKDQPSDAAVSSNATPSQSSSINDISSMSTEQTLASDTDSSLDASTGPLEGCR
# Experiments:
# [1] = biological target: Mitogen-activated protein kinase 10 (Homo sapiens, UniProt P53779); assay: Inhibition of JNK3
# [2] = biological target: Mitogen-activated protein kinase 9 (Homo sapiens, UniProt P45984); assay: Inhibition of JNK2
smiles,measurement,setting,value
COC(=O)c1c(-c2ccccc2)c2cc(Br)ccc2c(=O)n1Cc1ccc(S(C)(=O)=O)cc1,IC50,[1],30 nM
same,IC50,[2],34 nM
